These are literature values, as cited in US9850293B2, “Targeting trastuzumab-resistant HER2+ breast cancer with a HER3-targeting nanoparticle” (priority 2014, dated 2017).

The conditions of this data set: T-DM1; untargeted Dox in patients; cited from earlier work.

Structures are written as SMILES.

On to `COc1cccc2c1C(=O)c1c(O)c3c(c(O)c1C2=O)C[C@@](O)(C(=O)CO)C[C@@H]3O[C@H]1C[C@H](N)[C@H](O)[C@H](C)O1` [Dox, doxorubicin, reference compound], for which the therapeutic dose required is 1 to 5 mg/kg.
